Reference: US20160002204A1 (Board of Regents, The University of Texas System, priority 2014, published 2016)

Chains of the proteins cited; added tags and fusions are not shown. Residues count along the entry.
UniProt O94925, 55-598 isoform 3 limits assumed: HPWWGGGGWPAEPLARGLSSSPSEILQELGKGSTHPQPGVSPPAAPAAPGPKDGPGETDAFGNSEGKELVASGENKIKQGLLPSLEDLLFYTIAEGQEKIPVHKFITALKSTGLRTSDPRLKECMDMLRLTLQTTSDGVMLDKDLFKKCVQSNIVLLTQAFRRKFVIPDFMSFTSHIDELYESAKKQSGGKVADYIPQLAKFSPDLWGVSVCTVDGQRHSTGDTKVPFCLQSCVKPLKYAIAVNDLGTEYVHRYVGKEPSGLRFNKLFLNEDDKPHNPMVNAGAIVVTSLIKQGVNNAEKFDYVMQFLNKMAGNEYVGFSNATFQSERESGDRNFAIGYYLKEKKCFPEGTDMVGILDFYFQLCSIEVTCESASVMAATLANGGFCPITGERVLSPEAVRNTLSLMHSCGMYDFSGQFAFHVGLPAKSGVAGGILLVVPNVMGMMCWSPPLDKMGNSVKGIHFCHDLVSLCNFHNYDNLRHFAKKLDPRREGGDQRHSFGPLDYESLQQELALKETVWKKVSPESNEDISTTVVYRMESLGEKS

Assays:
[1] = target: GLS1 (purified recombinant human GAC) (Homo sapiens, UniProt O94925); experiment: GLS1 enzymatic activity assay (dual-coupled, Amplex UltraRed/resorufin); details: read-out: GLS1 IC50
Procedure: GLS1 Enzymatic Activity Assay
The inhibition of purified recombinant human GAC by varying concentrations of inhibitors is assessed via a dual-coupled enzymatic assay. The glutamate produced by the glutaminase reaction is used by glutamate oxidase to produce α-ketoglutarate, ammonia, and hydrogen peroxide, with this hydrogen peroxide subsequently being used by horseradish peroxidase to produce resorufin in the presence of Amplex UltraRed. The assay buffer consisted of 50 mM Hepes (pH 7.4), 0.25 mM EDTA and 0.1 mM Triton X-100. GAC was incubated with potassium phosphate (10 minutes at room temperature) prior to incubation with inhibitor (10 minutes at room temperature). The final reaction conditions were as follows: 2 nM GAC, 50 mM potassium phosphate, 100 mU/mL glutamate oxidase (Sigma), 1 mM glutamine (Sigma), 100 mU/mL horseradish peroxidase (Sigma), 75 μM Amplex UltraRed (Life Technologies), and 1% (v/v) DMSO. The production of resorufin was monitored on a Perkin Elmer Envision plate reader (excitation 530 nm, emission 590 nm) either in a kinetics or endpoint mode (at 20 minutes). IC50 values were calculated using a four-parameter logistic curve fit.

A549 cells = experiment: A549 proliferation (viability) assay, Cell Titer Fluor, 72 hours; details: read-out: A549 EC50
Procedure: A549 cells were routinely maintained in RPMI 1640 media (Gibco catalog number 11875-093) supplemented with 10% dialyzed fetal bovine serum using a humidified incubator (37° C., 5% CO2 and ambient O2). In preparation for the viability assay, cells were inoculated into 384-well black CulturPlates (Perkin Elmer) at a density of 1000 cells/well in a volume of 40 uL. Following a 24-hour incubation at 37° C., 5% CO2 and ambient O2, cells were treated with compound (10 uL) in a final DMSO concentration of 0.5% (v/v). The microplates were then incubated for 72 hours (37° C., 5% CO2 and ambient O2). Cell Titer Fluor (Promega) was subsequently added (10 uL of 6× reagent) and mixed for 15 minutes at room temperature. The plates were then incubated for 30 minutes (37° C., 5% CO2 and ambient O2) and fluorescence was subsequently read on the Perkin Elmer Envision plate reader. EC50 values were calculated using a four-parameter logistic curve fit.

CC(=O)O[C@H](C(=O)Nc1ccn(CCCCn2cc(C(=O)NCc3cccc(OC(F)(F)F)c3)nn2)c(=O)c1)c1ccccc1
IC50 [1]: < 100 nM | EC50 (A549 cells): 100 to 500 nM
